The source of these data is PubChem BioAssay AID1246 (Columbia University Molecular Screening Center, 2008).

The entries are a selection whose mix differs from that of the whole data set. Some of these compounds have results that are not shown, active ones among them. Calls of active or inactive are those of the source.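 How the source made its calls: active means inhibition above the batch mean plus 3 SD, and confirmed as a hit on visual image review (cut at about 43% in these data); inconclusive means passes the inhibition cutoff but fails visual image review; inactive means the rest.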

The experiment can be described thus: E-selectin induction blockers in HUVEC – imaging, immunofluorescence, high content, primary screen (AID 1246).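 Further: 0% = TNF-stimulated DMSO wells and 100% = unstimulated control wells.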 The conditions noted are these: HUVEC TNFa-induced E-selectin immunofluorescence, at 2 µM, stronger effect = higher value.
For `CCN1CCCC(OC(=O)C2(O)c3ccccc3C=Cc3ccccc32)C1` (stereo not drawn), the inhibition is inactive: 15.2%. Then `CC(C)N1C(=O)CC2(CCN(CCOC(=O)C(O)(c3ccccc3)c3ccccc3)CC2)C1=O`, with inactive: 10.4%; and `O=C(OC1CN2CCC1CC2)C(CO)(c1ccccc1)c1ccccc1` (stereo not drawn), with inactive: -16.1%.
